From ChEMBL document CHEMBL1641497, “A potent and selective indole N-type calcium channel (Ca(v)2.2) blocker for the treatment of pain” (Bioorg Med Chem Lett, 2011)

Tested on: hERG (Homo sapiens)
Experiment: Blockade of hERG channel at 10 uM by displacement of MK-0499 binding

## COCCn1c(-c2cc(C)cc(C)c2)cc2cc(C(C)(C)C(=O)NC(C)(C)C)ccc21
  inhibition at 10 µM: 81%
